For this test, the target named is T1, rat pituitary receptors (Rattus norvegicus, UniProt P30969).
T1 construct: from tissue; host or cells: rat pituitary
T1 sequence (P30969 1-327): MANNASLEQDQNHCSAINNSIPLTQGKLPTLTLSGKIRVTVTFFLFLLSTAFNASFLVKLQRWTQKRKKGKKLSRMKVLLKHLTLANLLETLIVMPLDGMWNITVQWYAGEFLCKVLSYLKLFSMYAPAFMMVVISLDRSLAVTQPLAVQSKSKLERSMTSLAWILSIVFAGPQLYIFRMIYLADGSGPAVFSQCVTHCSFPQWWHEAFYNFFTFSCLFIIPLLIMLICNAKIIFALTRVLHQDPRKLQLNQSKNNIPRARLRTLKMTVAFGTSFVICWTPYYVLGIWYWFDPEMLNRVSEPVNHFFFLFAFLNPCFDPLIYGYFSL
The test can be described thus: Receptor binding potency, rat pituitary receptors.

What is called IC50 is the concentration that inhibits the measured activity by half. Low readings indicate inhibition by little substance, high ones a need for much substance. With `CC(C)C[C@H](NC(=O)[C@@H](CCCCN)NC(=O)[C@H](Cc1ccc(O)cc1)NC(=O)[C@H](CO)NC(=O)[C@H](Cc1c[nH]c2ccccc12)NC(=O)[C@H](Cc1cnc[nH]1)NC(=O)[C@@H]1CCC(=O)N1)C(=O)N[C@@H](CCCNC(=N)N)C(=O)N1CCC[C@H]1C(=O)NCC(N)=O` [[D-Lys^6]LH-RH], the IC50 turned out to be 2.26 nM.

Values taken from patent publication US6184374A, “Targeted cytotoxic anthracycline analogs” (priority 1998, dated 2001).
